Test [1] has as its target T1, Anthranilate synthase component 1 (Salmonella typhimurium (strain LT2 / SGSC1412 / ATCC 700720)) (UniProt P00898).
T1 sequence (whole entry): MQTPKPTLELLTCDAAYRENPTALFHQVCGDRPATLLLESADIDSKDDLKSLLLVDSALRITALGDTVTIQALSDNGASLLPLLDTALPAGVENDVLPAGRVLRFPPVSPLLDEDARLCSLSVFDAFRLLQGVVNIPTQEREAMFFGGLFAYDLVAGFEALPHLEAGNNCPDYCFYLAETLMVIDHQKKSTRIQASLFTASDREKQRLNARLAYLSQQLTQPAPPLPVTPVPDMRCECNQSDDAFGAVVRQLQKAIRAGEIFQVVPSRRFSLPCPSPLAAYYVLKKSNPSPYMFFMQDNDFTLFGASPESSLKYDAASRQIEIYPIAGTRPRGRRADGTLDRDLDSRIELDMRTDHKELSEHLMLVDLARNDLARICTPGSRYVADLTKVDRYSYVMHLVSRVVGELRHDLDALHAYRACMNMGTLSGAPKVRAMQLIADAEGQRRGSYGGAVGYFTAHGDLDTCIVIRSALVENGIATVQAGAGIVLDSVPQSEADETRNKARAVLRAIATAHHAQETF
As to the kind of experiment: Competitive inhibition of Salmonella Typhimurium anthranilate synthase trpE expressed in Escherichia coli BL21(DE3) by double reciprocal plot in presence of cofactor Mg2+. As to conditions: Salmonella enterica subsp. enterica serovar Typhimurium.

The target in test [2] is T1, Anthranilate synthase component 1 (Salmonella typhimurium (strain LT2 / SGSC1412 / ATCC 700720)). As to the kind of experiment: Noncompetitive inhibition of Salmonella Typhimurium anthranilate synthase trpE expressed in Escherichia coli BL21(DE3) using chorismate as substrate by double reciprocal plot. As to conditions: Salmonella enterica subsp. enterica serovar Typhimurium. The essentials:
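S. typhimurium anthranilate synthase partial complex (TrpE2TrpG2), 2.2 nM, in a fluorescence assay read at 390 nm emission, 313 nm excitation, 25 °C. Buffer: 100 mM phosphate pH 7.0, 20 mM L-glutamine, 5 mM MgCl2 (saturating). Reactions were started with enzyme. Inhibitor ranged 10 μM–8 mM; chorismate ranged 0.5–5 KM. Ki versus chorismate came from initial rates.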

Active and inactive are the calls of the source. The calls are words filed in the database; no cut-off is given here.

Regarding `Cc1ccc(C(=O)N[C@@H](CCCCN)C(=O)N[C@@H](Cc2cccc(Cl)c2)C(N)=O)c([N+](=O)[O-])c1O`, the result in test [1] and in test [2] was Active.

The values above are taken from ChEMBL document CHEMBL1157909, “Targeting multiple chorismate-utilizing enzymes with a single inhibitor: validation of a three-stage design” (J Med Chem, 2010).
